Experimental data taken from patent publication US8530648B2, “Diaza-spiro[5.5]undecanes” (Novartis AG, priority 2009, dated 2013).

The chains behind the UniProt entries cited, without tags or fusion partners.
UniProt O43613, whole entry: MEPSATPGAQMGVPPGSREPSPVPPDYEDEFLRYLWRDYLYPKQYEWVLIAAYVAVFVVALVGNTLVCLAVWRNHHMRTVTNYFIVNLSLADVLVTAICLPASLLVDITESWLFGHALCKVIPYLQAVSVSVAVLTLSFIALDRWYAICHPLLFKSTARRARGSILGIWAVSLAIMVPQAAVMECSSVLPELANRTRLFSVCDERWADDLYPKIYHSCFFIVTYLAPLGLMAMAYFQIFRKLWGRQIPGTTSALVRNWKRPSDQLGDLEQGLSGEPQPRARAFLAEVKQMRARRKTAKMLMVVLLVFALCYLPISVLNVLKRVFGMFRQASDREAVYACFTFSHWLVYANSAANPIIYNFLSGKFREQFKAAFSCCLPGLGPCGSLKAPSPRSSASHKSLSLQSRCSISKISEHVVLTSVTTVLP

How the values were obtained:
hOx1R [1] = target: T1, hOx1R (Homo sapiens (Human), UniProt O43613); assay: Radioligand binding assay, [3H]-SB649868, hOx1R; settings: radioligand [3H]-SB649868, competition
Protocol: For crude cell membrane preparations, cells (CHO, Chinese hamster ovary or HEK, human embryonic kidney) expressing human orexin 1 or human orexin 2 receptors, were washed with HEPES (10 mM, pH 7.5), scraped off the culture plates with the same buffer, and centrifuged at 4° C. for 5 min at 2500×g. The cell pellet was either stored at −80° C. or used directly. Before the experiments, cell membranes were re-suspended in binding assay buffer (10 mM HEPES, 0.5% (w/v) bovine serum albumin, pH 7.5) by homogenisation with a Polytron homogeniser at 50 Hz for 20 s. Cell membranes were also used as made available by commercial providers.
Bound radioactivity was measured, and data were analysed with the program XLFIT or Graphpad Prism. Protein concentration was determined according to the Bradford/BioRad Protein Assay Kit.
In competition experiments, cell homogenates (150 μl) were incubated in assay buffer (10 mM HEPES, pH 7.5, 0.5% (w/v) bovine serum albumin, 5 mM MgCl2, 1 mM CaCl2, and tween 0.05%) for 1 h at room temperature with about 1 nM of the radioligand [^3H]-SB649868, 66 Ci/mmole, 50 μl), and with various concentrations of compounds of the invention (50 μl) in triplicates; non-specific binding was determined in the presence of almorexant (10 μM).

hOx1R [2] = target: T1, hOx1R; assay: Calcium accumulation in cells (FLIPR), hOx1R; format: cell-based; settings: inhibition of orexin A induced calcium accumulation, Cheng and Prusoff correction
Protocol: Calcium Accumulation in Cells (FLIPR):
Cells expressing human orexin 1 or human orexin 2 receptors, were seeded at 8,000 cells/well in 384 well black-walled clear bottom, poly-D-lysine coated plates. After 24 h, the medium was removed and cells were washed once with phosphate buffered saline and serum-deprived overnight in assay buffer (130 mM NaCl, 5.4 mM KCl, 1.8 mM CaCl2, 0.8 mM MgSO4, 0.9 mM NaH2PO4, 25 mM glucose, 20 mM HEPES, pH 7.4) containing bovine serum albumin (1% w/v).
On the day of the experiment, the cells seeded in black plates were treated with assay buffer containing the Ca^2+ sensitive fluorescent dye Fluo-4-AM (2 μM), and probenecid (0.1 mM). After 1 h plates were washed twice with, and resuspended in, assay buffer containing probenecid (0.1 mM) using a multi plate washer. […] Fluorescence measurements were then continued every 1 S for 120 S followed by every 4 S for 240 S.
The measurements were typically made in two sequences:
Compounds of formula I were tested usually in a concentration range from 10^−9 M to 10^−5 M.
In the second round, performed one hour later (to allow for equilibration), Orexin A was tested either in the absence (calibration curves, Orexin A agonist controls) or in the presence of compounds of formula I to determine antagonism.

Structure (SMILES) | Kd (hOx1R [1]) [µM] | Ki (hOx1R [2]) [µM]
Cc1noc(-c2cccc(CN3CCCC4(CCN(c5cnc6ccccc6n5)CC4)C3=O)c2)n1 [Example 104, 2-(3-(3-methyl-1,2,4-oxadiazol-5-yl)benzyl)-9-(quinoxalin-2-yl)-2,9-diazaspiro[5.5]undecan-1-one] | 4.58 | 1.01
CN1CCc2c(CN3CCCC4(CCN(c5cnc6ccccc6n5)CC4)C3=O)cccc21 [Example 145, 2-((1-methylindolin-4-yl)methyl)-9-(quinoxalin-2-yl)-2,9-diazaspiro[5.5]undecan-1-one] |  | 4.01
